# In PubChem BioAssay AID651957 (The Scripps Research Institute Molecular Screening Center, 2012):
# Protein sequences, listed by entry. Tags and fused reporters are not part of them. Lines headed by an entry give the natural chain unless they say otherwise; changes in a name come on top.
# UniProt Q15596: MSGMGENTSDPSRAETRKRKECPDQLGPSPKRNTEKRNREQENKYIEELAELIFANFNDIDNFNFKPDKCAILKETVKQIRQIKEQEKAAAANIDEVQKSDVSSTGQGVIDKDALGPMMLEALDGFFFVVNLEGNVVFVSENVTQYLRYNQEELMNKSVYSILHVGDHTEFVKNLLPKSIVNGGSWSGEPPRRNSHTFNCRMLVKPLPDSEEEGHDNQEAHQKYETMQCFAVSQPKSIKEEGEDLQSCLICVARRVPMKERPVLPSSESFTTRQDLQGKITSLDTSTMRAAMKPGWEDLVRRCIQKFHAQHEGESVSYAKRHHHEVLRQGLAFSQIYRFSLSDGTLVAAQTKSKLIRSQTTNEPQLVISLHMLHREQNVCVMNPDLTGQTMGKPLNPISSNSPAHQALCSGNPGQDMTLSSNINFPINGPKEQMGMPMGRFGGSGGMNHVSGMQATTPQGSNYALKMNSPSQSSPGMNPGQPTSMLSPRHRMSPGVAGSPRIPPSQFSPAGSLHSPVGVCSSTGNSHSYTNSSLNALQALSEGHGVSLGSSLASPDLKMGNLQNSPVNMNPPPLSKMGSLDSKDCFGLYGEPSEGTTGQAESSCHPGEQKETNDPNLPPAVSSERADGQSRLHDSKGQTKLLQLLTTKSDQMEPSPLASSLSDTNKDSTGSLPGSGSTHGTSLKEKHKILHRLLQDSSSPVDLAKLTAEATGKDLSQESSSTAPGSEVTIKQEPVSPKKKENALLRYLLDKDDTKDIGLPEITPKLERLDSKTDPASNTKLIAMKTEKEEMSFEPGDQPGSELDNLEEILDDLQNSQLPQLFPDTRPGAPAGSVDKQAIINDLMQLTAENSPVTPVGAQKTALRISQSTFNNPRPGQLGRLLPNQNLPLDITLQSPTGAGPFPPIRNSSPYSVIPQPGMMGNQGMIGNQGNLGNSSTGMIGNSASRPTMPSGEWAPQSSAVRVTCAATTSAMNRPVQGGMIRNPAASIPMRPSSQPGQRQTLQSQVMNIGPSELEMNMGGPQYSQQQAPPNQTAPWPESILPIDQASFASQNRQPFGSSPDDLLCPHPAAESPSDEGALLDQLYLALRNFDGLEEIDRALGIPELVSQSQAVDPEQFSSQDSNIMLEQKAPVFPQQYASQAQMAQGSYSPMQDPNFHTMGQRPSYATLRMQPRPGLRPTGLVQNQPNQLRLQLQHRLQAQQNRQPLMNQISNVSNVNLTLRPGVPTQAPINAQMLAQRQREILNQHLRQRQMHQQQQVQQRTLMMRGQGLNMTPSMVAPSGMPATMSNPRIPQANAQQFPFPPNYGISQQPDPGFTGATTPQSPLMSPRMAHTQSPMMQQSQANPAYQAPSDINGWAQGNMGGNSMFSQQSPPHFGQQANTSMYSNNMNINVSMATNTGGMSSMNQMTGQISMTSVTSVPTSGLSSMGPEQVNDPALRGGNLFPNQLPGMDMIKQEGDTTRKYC
# Only a part is listed here, and it is no random draw. Activity calls are given as the source filed them.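 The calls were made as follows: active = inhibition above the mean inhibition of all tested compounds plus 3 SD, set per campaign (cut at about 52% in these data); inactive = the rest.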
# Target: Nuclear receptor coactivator 2 (Homo sapiens) (UniProt Q15596)
# Assay: decrease of SRC2 fusion reporter luminescence – cell-based, SRC2 inhibitor project, primary screen (AID 651957);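 also: 0% = DMSO treated cells and 100% = cells given Gossypol at 36 µM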
# Details: HEK293 GAL4-SRC2 luciferase reporter, at 9 µM, hits give high values
row,Compound,inhibition
1,CC(C)(C)C(=O)NC(Sc1ncccn1)C(Cl)(Cl)Cl (stereo unspecified),inactive: 3.73%
2,O=P1(N(CCCl)CCCl)NCCC(C(F)(F)F)O1 (stereo unspecified),inactive: -6.48%
3,Clc1n[nH]nc1-c1nn[nH][15n]1,inactive: -1.4%
4,COc1ccccc1CNC(=O)COC(=O)C(O)(c1ccccc1)c1ccccc1,inactive: 20%
5,CC1(CBr)Cn2c(nc3ccccc3c2=O)S1 (stereo unspecified),inactive: -6.27%
6,CN(C(=O)Cc1ccc(Cl)c(Cl)c1)C1CCCC[C@@H]1N1CCCC1 (stereo partly specified),inactive: -17.8%
7,CC(C)/C=N\N=C(\N)N[N+](=O)[O-],inactive: -4.1%
8,CN(C(=O)Cc1ccc(Cl)c(Cl)c1)[C@@H]1CCCC[C@H]1N1CCCC1,inactive: 14.4%
9,CC1CCC(C(C)C)C(OP(=O)(Nc2ccccn2)c2ccccc2)C1 (stereo unspecified),inactive: -19.6%
10,Cc1ccc(C(=O)OC2CN3CCC2CC3)cc1 (stereo unspecified),inactive: 6.9%
11,Cc1nn(-c2ccccc2)c2c1P(=O)(N1CCOCC1)N(C)C(c1ccccc1)=N2 (stereo unspecified),inactive: -21.3%
12,CCCC1OP(=O)(Nc2ccccc2)OCC1CC (stereo unspecified),inactive: -9.19%
13,O=C(/C=C/c1ccccc1)OC1CN2CCC1CC2 (stereo unspecified),inactive: -10.9%
14,CN(C)C1(CNC(=O)c2ccc(S(C)(=O)=O)cc2)CCCCC1,inactive: 6.9%
15,O=P1(Nc2ncccn2)COc2ccccc2OC1,inactive: -8.01%
16,Cc1ccc(S(=O)(=O)N(CCCN)CCCc2c(C)nc(N)[nH]c2=O)cc1,inactive: 8.01%
17,O=P1(Nc2ccc(Br)cn2)COc2ccccc2OC1,inactive: -14.2%
18,NS(=O)(=O)c1cccc(NC(=O)COC(=O)C(O)(c2ccccc2)c2ccccc2)c1,inactive: -11%
19,O=[As](O)(c1cccs1)c1cccs1,inactive: -9.63%
20,Cc1ccc(OCC(=O)OC2CN3CCC2CC3)cc1 (stereo unspecified),inactive: -20.1%
21,Nc1cccc([As](=O)(O)c2ccccc2)c1,inactive: -12%
22,CC1CCNP(=O)(N(CCCl)CCCl)O1 (stereo unspecified),inactive: 13.1%
23,CCOC(=O)Nc1ccc([As](=O)(O)O)c(O)c1,inactive: -0.56%
24,O=C(O)C(O)c1ccc(N(CCCl)CCCl)cc1 (stereo unspecified),inactive: -2.39%
25,Cc1cc(SC(NC(=O)c2ccccc2)C(Cl)(Cl)Cl)nc(C(C)C)n1 (stereo unspecified),inactive: -5.87%
26,CCCCOc1ccc(C(=O)NCC2(N3CCCCC3)CCCCC2)cc1OC,inactive: -31.9%

row,Compound,inhibition
1,COP(=O)(OC)N1CC1c1ccccc1 (stereo unspecified),inactive: 1.12%
2,CCOC(=O)Nc1cccc([As](=O)(O)O)c1,inactive: -33.7%
3,O=[N+]([O-])c1ccc(Nc2ccc(Oc3ccc([N+](=O)[O-])cc3[N+](=O)[O-])cc2)c([N+](=O)[O-])c1,inactive: -6.98%
4,O=P(Nc1ccccn1)(c1cccc2ccccc12)c1cccc2ccccc12,inactive: 15%
5,Cc1cc(SC(NC=O)C(Cl)(Cl)Cl)ncn1 (stereo unspecified),inactive: 0.11%
6,COC(=O)C1(C)COP(=O)(N2CCCC2)OC1 (stereo unspecified),inactive: -51%
7,COP1(=S)c2c(C)nn(CCC#N)c2N=C(c2ccc(F)cc2)N1C (stereo unspecified),inactive: -10.4%
8,O=C(Nc1ccncc1[N+](=O)[O-])c1ccc([N+](=O)[O-])cc1[N+](=O)[O-],inactive: 16.9%
9,O=C(COc1ccccc1)OC1CN2CCC1CC2 (stereo unspecified),inactive: 2.21%
10,O=C(O)C(=O)c1ccc(N(CCCl)CCCl)cc1,inactive: 8.88%
11,CCOC(=O)c1ccc(NC(=O)C(C)(CCl)SC)cc1 (stereo unspecified),inactive: 7.57%
12,O=C(OC1CN2CCC1CC2)c1cccc([N+](=O)[O-])c1 (stereo unspecified),inactive: 3.74%
13,CCC(C)N(CC(C)C)C(=S)SC(NC(C)=O)C(Cl)(Cl)Cl (stereo unspecified),inactive: -17.9%
14,Cc1cc(=O)[nH]c(N[N+](=O)[O-])n1,inactive: 3.22%
15,O=C(OC1CN2CCC1CC2)C12CC3CC(CC(C3)C1)C2 (stereo unspecified),inactive: -18.9%
16,Cc1c2c(nc3ccccc13)SC(C(Cl)Cl)C2 (stereo unspecified),inactive: -10.6%
17,COc1cc(I)ccc1[As](=O)(O)O,inactive: 2.64%
18,COc1ccc2nc(NP(=O)(c3ccccc3)c3ccccc3)sc2c1,inactive: -14.9%
19,O=P1(N(CCCl)CCCl)Nc2ccccc2N1,inactive: -43.3%
20,O=P1(N(CCCl)CCCl)OCCCN1CCCl (stereo unspecified),inactive: -5.01%
21,COc1ccc(N/C(=N/P(=O)(N2CCOCC2)N2CCOCC2)N2CCOCC2)cc1,inactive: -21%
22,O=[N+]([O-])c1cc(Oc2ccc([N+](=O)[O-])cc2C(F)(F)F)cc([N+](=O)[O-])c1,inactive: -18.5%
23,COc1cc(C(=O)NCC2(N3CCOCC3)CCCCC2)ccc1OCC(C)C,inactive: -8.49%
24,O=[N+]([O-])c1ccc(-c2cc([N+](=O)[O-])c(O)c([N+](=O)[O-])c2)cc1,inactive: 16.3%
25,C[As](=O)(O)c1cccc(C(=O)O)c1,inactive: 6.94%
26,O=[As](O)(c1ccc(O)cc1)c1ccccc1O,inactive: -17.5%

row,Compound,inhibition
1,Cc1ccc2nc3c(c(C)c2c1)CC(C(Cl)Cl)S3 (stereo unspecified),inactive: -46.6%
2,[N-]=[N+]=NC1CCCCC1NC(=O)c1cc([N+](=O)[O-])cc([N+](=O)[O-])c1 (stereo unspecified),inactive: 3.9%
3,Cc1ccc(OP(=O)(Nc2ccc([N+](=O)[O-])cn2)Oc2ccc(C)cc2)cc1,inactive: -19.6%
4,CC(C)c1ccc(OP(=O)(Nc2ccccn2)Oc2ccccc2F)cc1 (stereo unspecified),inactive: -15.5%
5,COC(=O)C1(C)COP(=O)(N2CCCCCC2)OC1 (stereo unspecified),inactive: 13.9%
6,ClCCSc1nnc(-c2cccnc2)o1,inactive: -34.1%
7,O=C(OC1CN2CCC1CC2)c1cccc2[nH]cnc12 (stereo unspecified),inactive: -9.23%
8,CCN(CC)C(=S)SC(NC=O)C(Cl)(Cl)Cl (stereo unspecified),inactive: -44.6%
9,CC(C)NC(=O)NP(=O)(Oc1ccccc1)Oc1ccccc1,inactive: -6.24%
10,CCCC1OP(N)(=O)OCC1CC (stereo unspecified),inactive: 1.13%
11,O=C(O)c1ccccc1[As](=O)(O)O,inactive: 8.89%
12,CC(=O)Nc1ccc([As](=O)(O)O)cc1,inactive: 7.54%
13,CN(C)P(=O)(N(C)C)n1c(Nc2ccccc2)nnc1-c1ccccc1,inactive: -33.6%
14,O=P(Nc1nc2ccc(Cl)cc2s1)(c1ccccc1)c1ccccc1,inactive: -38.5%
15,Cc1ccc(NP(=O)(Oc2ccccc2F)Oc2ccccc2F)nc1,inactive: 4.07%
16,CN(C(=O)Cc1ccc(Cl)c(Cl)c1)[C@H]1CCCC[C@@H]1N1CCCC1,inactive: -12.5%
17,CCOP(=O)(Nc1ccccc1)OCC,inactive: -0.57%
18,Cc1cc(SC(NC(=O)c2ccc(F)cc2)C(Cl)(Cl)Cl)ncn1 (stereo unspecified),inactive: -23.4%
19,CCn1c(=O)n(C2CCN(CC3CCCCCCC3)C[C@H]2CO)c2ccccc21 (stereo partly specified),inactive: 28.7%
20,CCN(N=Nc1nonc1N)c1nonc1N,inactive: 21.5%
21,CN(C(=O)Cc1ccccc1)C1CC[C@@]2(CCCO2)C[C@@H]1N1CCCC1 (stereo partly specified),inactive: 8.27%
22,Nc1cccc2ccc([As](=O)(O)O)cc12,inactive: -9.66%
23,NC(=O)c1cc([N+](=O)[O-])cc([N+](=O)[O-])c1N,inactive: -18.8%
24,Cc1ccc(N/C(=N/P(=O)(N2CCOCC2)N2CCOCC2)N2CCOCC2)cc1,inactive: -1.29%
25,CN(C(=O)Cc1ccc(Cl)c(Cl)c1)[C@H]1CCCC[C@H]1N1CCCC1,inactive: -5.15%
26,Cc1ccc(OP(=O)(Nc2nccs2)Oc2ccc(C)cc2)cc1,inactive: 5.1%

row,Compound,inhibition
1,COc1ccccc1OP(=O)(Nc1ccc(C)cn1)Oc1ccccc1OC,inactive: -16.4%
2,Clc1ccc(Cl)c(NC2=NCC(CBr)S2)c1 (stereo unspecified),inactive: 1.04%
3,CN1CCCC(OC(=O)C(c2ccccc2)c2ccccc2)C1 (stereo unspecified),inactive: -16.8%
4,CC(C)CC(=O)NC(Sc1ccc(Cl)cc1)C(Cl)(Cl)Cl (stereo unspecified),inactive: 6.25%
5,Nc1cc(N)c2nonc2c1[N+](=O)[O-],inactive: -49.7%
6,O=C(NC(Sc1ccncn1)C(Cl)(Cl)Cl)c1ccccc1 (stereo unspecified),inactive: 1.19%
7,Oc1ccccc1CNc1ccccn1,inactive: 12.7%
8,COc1ccc(C2=NCC(CBr)S2)cc1 (stereo unspecified),inactive: -3.62%
9,O=[N+]([O-])c1cccc2n[nH]nc12,inactive: -19.4%
10,CC(=O)N1C2C3N(C(C)=O)C1C1N(C(C)=O)C(C(N1C(C)=O)N3C(C)=O)N2C(C)=O,inactive: 0.11%
11,CCc1nc2c(n1)c1c(non1O)c1c2no[n+]1[O-],inactive: -33.9%
12,O=[N+]([O-])c1cc([N+](=O)[O-])c(CCNc2ccccc2)c([N+](=O)[O-])c1,inactive: 31%
13,Cc1ccc(NP(=O)(Oc2ccccc2)Oc2ccccc2)nc1,inactive: -8.91%
14,C[N+]1=C2C=CC=CC=C2SC12C([N+](=O)[O-])=CC([N+](=O)[O-])=C[C-]2[N+](=O)[O-] (stereo unspecified),active: 91.7%
15,Nc1ccc([As](=O)(O)c2ccc(N)cc2)cc1,inactive: 26.9%
16,CCN(/C(=N/P(=O)(N1CCOCC1)N1CCOCC1)N1CCOCC1)c1ccc(OC)cc1,inactive: -10.1%
17,CN(C)C(=O)OCCc1n(C)cc[n+]1C,inactive: -23.4%
18,CC(C)=N/N=C(\N)N[N+](=O)[O-],inactive: -21.6%
19,CC(C)c1nc(Nc2ccccc2)n(P(=O)(N(C)C)N(C)C)n1,inactive: -16.3%
20,c1cc(-c2nn[nH]n2)ccc1-c1nn[nH]n1,inactive: -6.79%
21,CC1CCN(C(=O)Oc2c(Cl)cc(Cl)c3cccnc23)CC1,inactive: -27.6%
22,O=P1(N(CCCl)CCCl)OCCCS1 (stereo unspecified),inactive: 1.3%
23,O=C(Nc1cc([As](=O)(O)O)ccc1O)c1ccccc1,inactive: 7.25%
